These are literature values, as cited in patent US20220023323A1, “RESETTING BIOLOGICAL PATHWAYS FOR DEFENDING AGAINST AND REPAIRING DETERIORATION FROM HUMAN AGING” (priority 2015, published 2022).

Structures are written as SMILES.

The conditions of this series: in vivo; cited from earlier work.

As to `CN(C)C(=N)N=C(N)N` [metformin], the “time to steady state” value was “one to two”.
